Measured values: PMC3490489 (Clinical cancer research : an official journal of the …, 2012)
Like-named read-outs stand apart in the source and are kept apart here.

Format: in vivo, human

Mean CL/F (females): 60±28 mL/min/m^2
concentration at 7 day (human, plasma, oral, 150 mg/m^2 twice daily): 7100 ng/mL
Mean CL/F (males): 67±43 mL/min/m^2
Mean sorafenib steady-state concentration (sorafenib 200 mg/m^2 twice daily, 24 patients): 5.1 mg/L
SMILES: CNC(=O)c1cc(Oc2ccc(NC(=O)Nc3ccc(Cl)c(C(F)(F)F)c3)cc2)ccn1 [sorafenib, reference compound]
